Antibody variant affinities, Ab-14 heavy chain, assay B

All variants were tested on one target, the spike HR2 peptide PDVDLGDISGINAS (SARS-CoV-2).

Each scFv is VH, a 15-residue (Gly4Ser)3 linker, VL, as in the parent Ab-14, and differs from it in the CDRs of the heavy chain only.
VH: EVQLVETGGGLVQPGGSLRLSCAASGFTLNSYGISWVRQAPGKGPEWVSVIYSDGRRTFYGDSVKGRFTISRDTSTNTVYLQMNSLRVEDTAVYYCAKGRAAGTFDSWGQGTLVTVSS
VL: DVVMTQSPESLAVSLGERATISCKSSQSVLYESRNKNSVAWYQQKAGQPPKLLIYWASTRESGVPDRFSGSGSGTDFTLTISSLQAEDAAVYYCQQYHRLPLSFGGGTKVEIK

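This is the validation round: designs drawn from the data on random variants, tested in the same kind of assay. Group labels follow the data file (Ctrl: baseline library sampled from a position-specific scoring matrix, with some repeated check sequences; Rand: our label for a block that the file lists under HC and that is probably the random mutants of the ten best first-round binders; GP: Gaussian process model; GPLM: also part of the Gaussian process libraries; HC: hill climbing; Gen: genetic algorithm; Gibbs: Gibbs sampling; a sequence that several methods proposed may carry one label only). The scFvs were displayed on barcoded MATa yeast, the peptide on MATalpha yeast. The frequency of each diploid, read from paired DNA barcodes, reflects how well the two displayed proteins bind. Read counts were normalised to the haploid input and turned into Kd by a linear fit to BCL2-family pairs of known affinity, for each replicate. Mating was done six times.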

Sequences are complete VH domains.
Variants here have at most six changes.
Kd is apparent (estimated from mating counts) and averaged on the log scale over replicates with a signal. Smaller is tighter.
An entry "nd" has no value in the source: the pair was not observed among the diploids in any replicate. This suggests poor binding but is not conclusive.

For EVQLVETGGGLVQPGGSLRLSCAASGFTLNSYGISWVRQAPGKGPEWVSVIYADGRRTFYGDSVKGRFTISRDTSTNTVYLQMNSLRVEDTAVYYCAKGHAAGTFDAWGQGTLVTVSS [GPLM_Gen], the assay gave 1.5 nM (6 of 6 replicates; controls 0 of 18). Variant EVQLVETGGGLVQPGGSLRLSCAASGFTLNSYGISWVRQAPGKGPEWVSVIYSDGRRTFYKDSVKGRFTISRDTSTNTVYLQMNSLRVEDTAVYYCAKGREAGTFDTWGQGTLVTVSS [GPLM_Gen] gave 2.9 nM (6 of 6 replicates; controls 0 of 18). Variant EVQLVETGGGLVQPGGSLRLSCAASGFTLKEYGISWVRQAPGKGPEWVSVIYSDGRRTFYGDSVKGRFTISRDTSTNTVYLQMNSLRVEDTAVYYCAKGRAAVTFDKWGQGTLVTVSS [GP_HC] gave nd (0 of 6 replicates; controls 0 of 18). Variant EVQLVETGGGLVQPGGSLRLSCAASGFTLNSYSISWVRQAPGKGPEWVSVIYSDGRRTMYGDSVKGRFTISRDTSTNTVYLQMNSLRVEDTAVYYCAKGRAAGTFDSWGQGTLVTVSS [Ctrl] showed nd (0 of 6 replicates; controls 0 of 18). Variant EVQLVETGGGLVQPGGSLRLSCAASGFDLNSYGISWVRQAPGKGPEWVSVIYSDGRRTFYQDSVKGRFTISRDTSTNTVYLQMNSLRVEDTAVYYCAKGQLAGTFDSWGQGTLVTVSS [GP_HC] gave 3.1 nM (6 of 6 replicates; controls 0 of 18). Variant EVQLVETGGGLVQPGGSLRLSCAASGFSLKSYGISWVRQAPGKGPEWVSVIYSDGRRTAYGDSVKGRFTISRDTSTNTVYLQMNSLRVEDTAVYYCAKGRAAGTFDSWGQGTLVTVSS [GP_Gen] showed 8.7 nM (6 of 6 replicates; controls 1 of 18). For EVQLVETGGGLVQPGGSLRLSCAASGFTLNEDGISWVRQAPGKGPEWVSVIYSDGRRTFYGGSVKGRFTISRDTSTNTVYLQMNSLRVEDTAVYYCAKGRAAVTFDQWGQGTLVTVSS [Rand], the assay gave nd (0 of 6 replicates; controls 0 of 18). Variant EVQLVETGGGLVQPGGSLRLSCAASGFDLNSYGISWVRQAPGKGPEWVSVIYSDGRRTFYGDKVKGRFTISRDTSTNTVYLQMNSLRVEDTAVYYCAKGRTAGTFDSWGQGTLVTVSS [GPLM_Gibbs] gave 7.8 nM (4 of 6 replicates; controls 0 of 18).

Variant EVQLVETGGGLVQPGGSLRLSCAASGFSLNEYGISWVRQAPGKGPEWVSVIYSDGRRTFYIDSVKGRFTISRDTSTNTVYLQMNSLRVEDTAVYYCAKGPAAGTFDRWGQGTLVTVSS [GP_HC] showed 220 nM (3 of 6 replicates; controls 0 of 18). Variant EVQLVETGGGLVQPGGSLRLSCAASGFTLNDYGISWVRQAPGKGPEWVSVIYSDGRRTFYGDSVKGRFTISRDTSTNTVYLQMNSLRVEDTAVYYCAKGRAAGTFITWGQGTLVTVSS [GPLM_HC] showed nd (0 of 6 replicates; controls 0 of 18). For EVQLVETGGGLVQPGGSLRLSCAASGFDLNSYGISWVRQAPGKGPEWVSVIYSDGRRTFYIDSVKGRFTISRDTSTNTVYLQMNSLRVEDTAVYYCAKGQEAGTFDSWGQGTLVTVSS [GP_Gen], the assay gave 43 nM (2 of 6 replicates; controls 0 of 18). For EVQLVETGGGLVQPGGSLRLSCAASGFTLNSYGISWVRQAPGKGPEWVSVIYSDGRRTFYTDSVKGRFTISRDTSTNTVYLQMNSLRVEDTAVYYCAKGMNAGTFDSWGQGTLVTVSS [GP_HC], the assay gave 9.0 nM (6 of 6 replicates; controls 0 of 18). With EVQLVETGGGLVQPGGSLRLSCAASGFTLESYGISWVRQAPGKGPEWVSVIYSDGRRTFYADSVKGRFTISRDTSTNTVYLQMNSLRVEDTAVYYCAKGREAGTFDSWGQGTLVTVSS [GPLM_Gen] the result was 1.7 nM (6 of 6 replicates; controls 0 of 18). Variant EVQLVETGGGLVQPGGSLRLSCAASGFQLNEYGISWVRQAPGKGPEWVSVIYSDGRRTFYMDSVKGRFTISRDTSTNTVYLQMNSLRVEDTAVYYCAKGRTAGTFDSWGQGTLVTVSS [GPLM_HC] gave 1.1 nM (6 of 6 replicates; controls 0 of 18). Variant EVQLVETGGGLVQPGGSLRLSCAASGFSLNQYGISWVRQAPGKGPEWVSVIYSDGRRTFYSDSVKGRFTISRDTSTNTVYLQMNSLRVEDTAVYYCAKGEAAGTFDSWGQGTLVTVSS [GPLM_Gibbs] gave 770 pM (6 of 6 replicates; controls 0 of 18). Variant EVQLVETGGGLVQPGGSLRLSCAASGFKLNSYGISWVRQAPGKGPEWVSVIYSDGRRTFYDDSVKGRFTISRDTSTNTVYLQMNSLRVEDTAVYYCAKGRLAGTFDSWGQGTLVTVSS [GP_HC] gave 49 nM (5 of 6 replicates; controls 0 of 18).

With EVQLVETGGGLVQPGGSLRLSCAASGFTLNSYGISWVRQAPGKGPEWVSVIYADGRRTFYGDSVKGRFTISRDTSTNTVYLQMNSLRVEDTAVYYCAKGRAAGTFDGWGQGTLVTVSS [Ctrl] the result was 11 nM (5 of 6 replicates; controls 0 of 18). With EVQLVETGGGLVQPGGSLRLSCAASGNTLNSYGISWVRQAPGKGPEWVSVIYSDGRRTHYGDSVKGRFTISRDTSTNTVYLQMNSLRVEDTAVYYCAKGRAAGTFDSWGQGTLVTVSS [Ctrl] the result was 20 nM (1 of 6 replicates; controls 0 of 18). For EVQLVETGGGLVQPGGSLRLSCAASGFSLNEYGISWVRQAPGKGPEWVSVIYSDGRRTFYTDSVKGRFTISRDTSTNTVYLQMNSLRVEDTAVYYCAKGHFAGTFDSWGQGTLVTVSS [GP_HC], the assay gave 46 nM (6 of 6 replicates; controls 1 of 18). With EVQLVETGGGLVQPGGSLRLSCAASGFTLNQYGISWVRQAPGKGPEWVSVIYSDGRRTFYADSVKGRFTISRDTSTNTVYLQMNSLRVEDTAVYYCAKGRQAGTFDSWGQGTLVTVSS [GPLM_HC] the result was 550 pM (6 of 6 replicates; controls 0 of 18).

The 2 strongest on average among those seen in every replicate, once more:

VH	group	apparent Kd	seen in	empty controls
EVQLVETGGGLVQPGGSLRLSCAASGFTLNQYGISWVRQAPGKGPEWVSVIYSDGRRTFYADSVKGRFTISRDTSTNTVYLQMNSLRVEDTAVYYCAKGRQAGTFDSWGQGTLVTVSS	GPLM_HC	550 pM	6 of 6	0 of 18
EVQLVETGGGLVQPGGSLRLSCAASGFSLNQYGISWVRQAPGKGPEWVSVIYSDGRRTFYSDSVKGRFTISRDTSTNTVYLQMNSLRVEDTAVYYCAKGEAAGTFDSWGQGTLVTVSS	GPLM_Gibbs	770 pM	6 of 6	0 of 18

Nonspecific signal, from three strains lacking the peptide, appeared in 1% of pairings of all heavy chain designs, centred on 120 nM (5% of these signals below 7.0 nM); values are not corrected for it. Also given: how often the same scFv was detected with the empty control strains.
The authors' rule: three or more of the six replicates give a measured affinity, fewer mean a poor binder.
The range of this assay differs from that of the first round, and the authors advise against merging the two.
Of ten entries with the parent sequence, four were seen in most replicates (averages 2.2 nM to 240 nM), three in one and three in none, so single entries are noisy.

Data: MIT Lincoln Laboratory AlphaSeq set, Li et al. 2023, doi:10.1038/s41467-023-39022-2, as distributed in FLAb.